This note sets out measurements from PMC5073051 (European journal of medicinal chemistry, 2016).

The structures appear in SMILES notation.

Assay [1] deals with MDA-MB-231 cells. As to the kind of experiment: HGF-induced cell proliferation MTT assay, MDA-MB-231. The following applies: Homo sapiens, MDA-MB-231, 72 h, read-out: Antiproliferative activity IC50 ± SEM, MDA-MB-231, MTT, HGF 40 ng/mL, 72 h, 2D monolayer.
For assay [2], the system named is MDA-MB-231 cells. As to the kind of experiment: HGF-induced cell migration wound-healing assay. The conditions noted are these: Homo sapiens, MDA-MB-231, 24 h, read-out: Antimigratory activity IC50 ± SEM, MDA-MB-231, wound-healing assay, HGF 40 ng/mL, 24 h.

Turning to `C/C=C(/C=O)[C@@H](CC=O)CC(=O)OCCc1ccc(O)cc1` [Compound 1, (-)-Oleocanthal, reference compound], the IC50 in assay [1] is 15 ± 1.4 µM; in assay [2], 7.5 ± 1.1 µM.
